We go through 17 substances from article PMC4015959, “The Structural and Functional Basis of Catalysis Mediated by NAD(P)H:acceptor Oxidoreductase (FerB) of Paracoccus denitrificans” (PLoS ONE, 2014).

For orientation: Km means the substrate concentration at which the rate is half of its maximum. In general, kcat refers to the number of substrate molecules converted per active site and unit of time at saturation. One may read the kcat/Km as the second-order rate constant that governs catalysis at low substrate concentration.

The subject of one data set is reduced nicotinamide adenine dinucleotide. Description: purified protein, by the assay type. Particulars: pH 7.4; 10.0 °C.
Take “FerBHis6 (Paracoccus denitrificans PD1222)”: the Km was found to be 22 ± 2 µM, the kcat turned out to be 258 s⁻¹ and the kcat/Km stood at 1.17e+07 M⁻¹ s⁻¹.
On the same counts, the results for “FerBHis6-E77A (Paracoccus denitrificans PD1222; E77A)” are 180 ± 30 µM, 17.9 s⁻¹ and 99000 M⁻¹ s⁻¹.
On the same counts, the results for “FerBHis6-E77K (Paracoccus denitrificans PD1222; E77K)” are 30 ± 8 µM, 0.75 s⁻¹ and 25000 M⁻¹ s⁻¹.
On to “FerBHis6-E77L (Paracoccus denitrificans PD1222; E77L)”, for which the Km was 250 ± 30 µM, the kcat amounted to 0.072 s⁻¹ and the kcat/Km came to 290 M⁻¹ s⁻¹.
On the same counts, the results for “FerBHis6-E77M (Paracoccus denitrificans PD1222; E77M)” are 420 ± 160 µM, 2.5 s⁻¹ and 6000 M⁻¹ s⁻¹.
On the same counts, the results for “FerBHis6-G115F (Paracoccus denitrificans PD1222; G115F)” are 410 ± 90 µM, 2.2 s⁻¹ and 5400 M⁻¹ s⁻¹.
Regarding “FerBHis6-G115I (Paracoccus denitrificans PD1222; G115I)”, the Km is 630 ± 70 µM, the kcat stood at 1.7 s⁻¹ and the kcat/Km stood at 2700 M⁻¹ s⁻¹.
In the same order, the values of “FerBHis6-G118F (Paracoccus denitrificans PD1222; G118F)” are 85 ± 6 µM, 77 s⁻¹ and 906000 M⁻¹ s⁻¹.
Turning to “FerBHis6-G118I (Paracoccus denitrificans PD1222; G118I)”, the Km stood at 38 ± 3 µM, the kcat came out at 12 s⁻¹ and the kcat/Km was 316000 M⁻¹ s⁻¹.
On the same counts, the results for “FerBHis6-R80E (Paracoccus denitrificans PD1222; R80E)” are 30 ± 3 µM, 0.275 s⁻¹ and 9200 M⁻¹ s⁻¹.
On the same counts, the results for “FerBHis6-R80K (Paracoccus denitrificans PD1222; R80K)” are 350 ± 80 µM, 9.5 s⁻¹ and 27000 M⁻¹ s⁻¹.
On the same counts, the results for “FerBHis6-R80L (Paracoccus denitrificans PD1222; R80L)” are 580 ± 150 µM, 0.142 s⁻¹ and 240 M⁻¹ s⁻¹.
Regarding “FerBHis6-R80M (Paracoccus denitrificans PD1222; R80M)”, the Km stood at 780 ± 280 µM, the kcat amounted to 0.302 s⁻¹ and the kcat/Km is 390 M⁻¹ s⁻¹.
Take “FerBHis6-R95A (Paracoccus denitrificans PD1222; R95A)”: the Km was 20 ± 2 µM, the kcat stood at 146 s⁻¹ and the kcat/Km amounted to 7.29e+06 M⁻¹ s⁻¹.
On the same counts, the results for “FerBHis6-R95E (Paracoccus denitrificans PD1222; R95E)” are 70 ± 9 µM, 21.1 s⁻¹ and 302000 M⁻¹ s⁻¹.
On the same counts, the results for “FerBHis6-S113A (Paracoccus denitrificans PD1222; S113A)” are 60 ± 20 µM, 76.7 s⁻¹ and 1.28e+06 M⁻¹ s⁻¹.
On the same counts, the results for “FerBHis6-Y78A (Paracoccus denitrificans PD1222; Y78A)” are 40 ± 10 µM, 196 s⁻¹ and 4.9e+06 M⁻¹ s⁻¹.

Still in this data set, the particulars now being: pH 7.4; 30.0 °C.
In the case of “FerBHis6-R95A (Paracoccus denitrificans PD1222; R95A)”, the Km was determined as 33 µM.
